According to US9751837B2, “Kinase inhibitors” (RESPIVERT LIMITED, priority 2014, dated 2017):

Test system: non-mutant kinases
Assay: KinomeScan Selectivity Scores
Type: binding
Settings: 50 nM
From the text: These assays may be conducted by DiscoverX (formerly Ambit; San Diego, Calif.).

COc1cc(Nc2cc(Oc3ccc(NC(=O)Nc4cc(C(C)(C)C)cc(NS(C)(=O)=O)c4OC)c4ccccc34)ccn2)ccc1P(C)(=O)O [Example 44, (4-((4-((4-(3-(5-(tert-Butyl)-2-methoxy-3-(methylsulfonamido)phenyl)ureido)naphthalen-1-yl)oxy)pyridin-2-yl)amino)-2-methoxyphenyl)(methyl)phosphinic acid]
KinomeScan Selectivity Score S(1) ((non-mutant kinases with % Ctrl <1)/(non-mutant kinases tested)): 0.002
KinomeScan Selectivity Score S(10) ((non-mutant kinases with % Ctrl <10)/(non-mutant kinases tested)): 0.074
